# Earlier results in patent publication US4743619A, “Method of treating hepatitis” (American Home Products Corporation, priority 1986, dated 1988).
# Tested on: polymerase activity of the viron or Dane particle
# Conditions: nine patients, chronic hepatitis B, cited from earlier work
substance,measurement,setting,value
"rINF-A: leukocyte A Interfereon (rINF-A or HuIFN-2), produced by recombinant DNA methods",permanence of the change in polymerase activity,,not permanent in any of the patients
same,polymerase activity of the viron or Dane particle under treatment,most courses of treatment,associated with a reduction in polymerase activity of the viron or Dane particle
